Measured values as given in article PMC6321168, “Comparative Study on Excretive Characterization of Main Components in Herb Pair Notoginseng-Safflower and Single Herbs by LC–MS/MS” (Pharmaceutics, 2018).

Legend:
CYP2C11 = settings: in rats; cited from earlier work
CYP1A2 = settings: in rats; cited from earlier work
[1] = Urinary excretion study in rats after oral NS, SF or CNS (LC–MS/MS); format: in vivo; settings: for Accumulative excretion amount / Accumulative excretion percentage / Concentration / Excretion amount: rat urine
Procedure: The animal room was set at constant temperature of 20 ± 2 °C with humidity of 50 ± 20% and 12/12 h light/dark cycle.
(§1) Eighteen male rats were fasted for 12 h before starting the experiment. The rats were divided into three groups at random (n = 6) and received NS (60 mg/kg), SF (50 mg/kg), and NS (60 mg/kg) + SF (50 mg/kg), respectively, by oral gavage. The rats were placed in separate metabolic cages. The urine samples were collected at 0–2, 2–4, 4–6, 6–8, 8–12, 12–24, 24–36, 36–48, 48–72, 72–96, and 96–120 h. The feces samples were collected at 0–4, 4–8, 8–12, 12–24, 24–36, 36–48, 48–72, 72–96, and 96–120 h. The urine volume was recorded and the dry feces were measured for each collection period. Samples were stored at −80 °C until analysis.
An aliquot of 200 μL urine sample was mixed with 10 μL of IS and evaporated to dryness with a ZLS-2 vacuum centrifugal concentrator (Herexi Co., Ltd., Changsha, Hunan, China). The residue was reconstituted in 100 μL of 50% methanol vortexed for 2 min and centrifuged at 12,000 rpm for 15 min. Finally, a 1 μL aliquot was injected for LC–MS analysis.
Ultra fast liquid chromatography (UFLC) analysis was performed using a Shimadzu UFLC system (DGU-20A3R Degasser; LC-20AD pump; SIL-20AXR Autosampler; CTO-20AC Column Oven) (Nakagyo-Ku, Koyoto, Japan). […] Because of the different endogenous substances in the urine and feces samples, different elution gradients were used to alleviate the matrix effects for the analytes.
The mass spectrometric detection was performed on an ABSciex 4500 Qtrap mass spectrometer (ABSciex, Foster City, CA, USA) equipped with a negative electrospray ionization (ESI) interface using multiple reaction monitoring (MRM). The MS parameters were optimized under the selected ion monitoring conditions as follows: curtain gas, 35 psi; ionspray voltage, 4500 V; turbo gas temperature, 450 °C; GS1, 45 psi; GS2, 45 psi. All data were acquired and analyzed by Analyst software (Versions 1.6.2) from ABSciex.
(§2) The accumulative excretion percentage was calculated for each analyte as follows. Excretion at time (t) = [concentration of the analyte (ng/mL) at t] × total urine (or feces) volume (mL) at t. The cumulative excretion up to time t (mg) was expressed as a percent (%) cumulative excretion by dividing by the total amount of the analyte ingested (mg): % Cumulative Excretion = 100 × (Σt excretiont) total ingested.

[2] = Total excretion in urine and feces of rats; format: in vivo; settings: each group (NS, SF, CNS)
Procedure: as §1, §2

Accumulative excretion amount ([1]; oral CNS 110 mg/kg, 2 h): 4.713 ± 3.816 µg
Accumulative excretion percentage ([1]; oral CNS 110 mg/kg, 2 h): 0.473±0.387%
Concentration ([1]; oral CNS 110 mg/kg, 2 h): 3367 ± 3471 ng/mL
Excretion amount ([1]; oral CNS 110 mg/kg, 2 h): 4.713 ± 3.816 µg
Accumulative excretion amount ([1]; oral CNS 110 mg/kg, 4 h): 9.054 ± 2.878 µg
Accumulative excretion percentage ([1]; oral CNS 110 mg/kg, 4 h): 0.902±0.288%
Concentration ([1]; oral CNS 110 mg/kg, 4 h): 4299 ± 4350 ng/mL
Excretion amount ([1]; oral CNS 110 mg/kg, 4 h): 5.787 ± 2.672 µg
Accumulative excretion amount ([1]; oral CNS 110 mg/kg, 6 h): 11.240 ± 2.799 µg
Accumulative excretion percentage ([1]; oral CNS 110 mg/kg, 6 h): 1.111±0.284%
Concentration ([1]; oral CNS 110 mg/kg, 6 h): 1851 ± 1081 ng/mL
Excretion amount ([1]; oral CNS 110 mg/kg, 6 h): 2.915 ± 1.407 µg
Accumulative excretion amount ([1]; oral CNS 110 mg/kg, 8 h): 13.469 ± 5.034 µg
Accumulative excretion percentage ([1]; oral CNS 110 mg/kg, 8 h): 1.332±0.503%
Concentration ([1]; oral CNS 110 mg/kg, 8 h): 2374 ± 2051 ng/mL
Excretion amount ([1]; oral CNS 110 mg/kg, 8 h): 3.567 ± 3.630 µg
Accumulative excretion amount ([1]; oral CNS 110 mg/kg, 12 h): 16.481 ± 6.950 µg
Accumulative excretion percentage ([1]; oral CNS 110 mg/kg, 12 h): 1.634±0.696%
Concentration ([1]; oral CNS 110 mg/kg, 12 h): 4148 ± 6221 ng/mL
Excretion amount ([1]; oral CNS 110 mg/kg, 12 h): 3.442 ± 2.613 µg
Accumulative excretion amount ([1]; oral CNS 110 mg/kg, 24 h): 18.044 ± 7.031 µg
Accumulative excretion percentage ([1]; oral CNS 110 mg/kg, 24 h): 1.783±0.701%
Concentration ([1]; oral CNS 110 mg/kg, 24 h): 453 ± 548 ng/mL
Excretion amount ([1]; oral CNS 110 mg/kg, 24 h): 1.562 ± 1.307 µg
Accumulative excretion amount ([1]; oral CNS 110 mg/kg, 36 h): 18.373 ± 7.165 µg
Accumulative excretion percentage ([1]; oral CNS 110 mg/kg, 36 h): 1.821±0.715%
Concentration ([1]; oral CNS 110 mg/kg, 36 h): 198 ± 296 ng/mL
Excretion amount ([1]; oral CNS 110 mg/kg, 36 h): 0.340 ± 0.319 µg
Accumulative excretion amount ([1]; oral CNS 110 mg/kg, 48 h): 18.568 ± 7.270 µg
Accumulative excretion percentage ([1]; oral CNS 110 mg/kg, 48 h): 1.841±0.726%
Concentration ([1]; oral CNS 110 mg/kg, 48 h): 39 ± 42 ng/mL
Excretion amount ([1]; oral CNS 110 mg/kg, 48 h): 0.195 ± 0.178 µg
Accumulative excretion amount ([1]; oral CNS 110 mg/kg, 72 h): 18.701 ± 7.480 µg
Accumulative excretion percentage ([1]; oral CNS 110 mg/kg, 72 h): 1.857±0.748%
Concentration ([1]; oral CNS 110 mg/kg, 72 h): 66 ± 139 ng/mL
Excretion amount ([1]; oral CNS 110 mg/kg, 72 h): 0.133 ± 0.278 µg
Accumulative excretion amount ([1]; oral CNS 110 mg/kg, 96 h): 18.763 ± 7.536 µg
Accumulative excretion percentage ([1]; oral CNS 110 mg/kg, 96 h): 1.864±0.759%
Concentration ([1]; oral CNS 110 mg/kg, 96 h): 31 ± 45 ng/mL
Excretion amount ([1]; oral CNS 110 mg/kg, 96 h): 0.062 ± 0.089 µg
Accumulative excretion amount ([1]; oral CNS 110 mg/kg, 120 h): 18.804 ± 7.544 µg
Accumulative excretion percentage ([1]; oral CNS 110 mg/kg, 120 h): 1.864±0.756%
Concentration ([1]; oral CNS 110 mg/kg, 120 h): 57 ± 114 ng/mL
Excretion amount ([1]; oral CNS 110 mg/kg, 120 h): 0.041 ± 0.052 µg
Accumulative excretion amount ([1]; oral SF 50 mg/kg, 2 h): 6.268 ± 3.141 µg
Accumulative excretion percentage ([1]; oral SF 50 mg/kg, 2 h): 0.623±0.317%
Concentration ([1]; oral SF 50 mg/kg, 2 h): 1803 ± 870 ng/mL
Excretion amount ([1]; oral SF 50 mg/kg, 2 h): 6.268 ± 3.141 µg
Accumulative excretion amount ([1]; oral SF 50 mg/kg, 4 h): 13.148 ± 6.505 µg
Accumulative excretion percentage ([1]; oral SF 50 mg/kg, 4 h): 1.305±0.647%
Concentration ([1]; oral SF 50 mg/kg, 4 h): 4325 ± 2706 ng/mL
Excretion amount ([1]; oral SF 50 mg/kg, 4 h): 6.880 ± 4.592 µg
Accumulative excretion amount ([1]; oral SF 50 mg/kg, 6 h): 14.717 ± 5.303 µg
Accumulative excretion percentage ([1]; oral SF 50 mg/kg, 6 h): 1.465±0.527%
Concentration ([1]; oral SF 50 mg/kg, 6 h): 3381 ± 2681 ng/mL
Excretion amount ([1]; oral SF 50 mg/kg, 6 h): 5.139 ± 5.476 µg
Accumulative excretion amount ([1]; oral SF 50 mg/kg, 8 h): 15.809 ± 5.807 µg
Accumulative excretion percentage ([1]; oral SF 50 mg/kg, 8 h): 1.564± 0.573%
Concentration ([1]; oral SF 50 mg/kg, 8 h): 1310 ± 782 ng/mL
Excretion amount ([1]; oral SF 50 mg/kg, 8 h): 2.185 ± 1.420 µg
Accumulative excretion amount ([1]; oral SF 50 mg/kg, 12 h): 18.769 ± 6.103 µg
Accumulative excretion percentage ([1]; oral SF 50 mg/kg, 12 h): 1.861± 0.608%
Concentration ([1]; oral SF 50 mg/kg, 12 h): 864 ± 46 ng/mL
Excretion amount ([1]; oral SF 50 mg/kg, 12 h): 2.960 ± 2.5891 µg
Accumulative excretion amount ([1]; oral SF 50 mg/kg, 24 h): 27.211 ± 12.281 µg
Accumulative excretion percentage ([1]; oral SF 50 mg/kg, 24 h): 2.691±1.210%
Concentration ([1]; oral SF 50 mg/kg, 24 h): 825 ± 828 ng/mL
Excretion amount ([1]; oral SF 50 mg/kg, 24 h): 8.442 ± 8.803 µg
Accumulative excretion amount ([1]; oral SF 50 mg/kg, 36 h): 28.075 ± 12.431 µg
Accumulative excretion percentage ([1]; oral SF 50 mg/kg, 36 h): 2.782± 1.235%
Concentration ([1]; oral SF 50 mg/kg, 36 h): 201 ± 136 ng/mL
Excretion amount ([1]; oral SF 50 mg/kg, 36 h): 0.864 ± 0.722 µg
Accumulative excretion amount ([1]; oral SF 50 mg/kg, 48 h): 28.344 ± 12.378 µg
Accumulative excretion percentage ([1]; oral SF 50 mg/kg, 48 h): 2.809±1.228%
Concentration ([1]; oral SF 50 mg/kg, 48 h): 50 ± 46 ng/mL
Excretion amount ([1]; oral SF 50 mg/kg, 48 h): 0.269 ± 0.285 µg
Accumulative excretion amount ([1]; oral SF 50 mg/kg, 72 h): 28.470 ± 12.357 µg
Accumulative excretion percentage ([1]; oral SF 50 mg/kg, 72 h): 2.822±1.220%
Concentration ([1]; oral SF 50 mg/kg, 72 h): 22 ± 14 ng/mL
Excretion amount ([1]; oral SF 50 mg/kg, 72 h): 0.126 ± 0.043 µg
Accumulative excretion amount ([1]; oral SF 50 mg/kg, 96 h): 28.501 ± 12.334 µg
Accumulative excretion percentage ([1]; oral SF 50 mg/kg, 96 h): 2.822±1.225%
Concentration ([1]; oral SF 50 mg/kg, 96 h): 18 ± 19 ng/mL
Excretion amount ([1]; oral SF 50 mg/kg, 96 h): 0.031 ± 0.038 µg
Accumulative excretion amount ([1]; oral SF 50 mg/kg, 120 h): 28.562 ± 12.270 µg
Accumulative excretion percentage ([1]; oral SF 50 mg/kg, 120 h): 2.837±1.216%
Concentration ([1]; oral SF 50 mg/kg, 120 h): 35 ± 45 ng/mL
Excretion amount ([1]; oral SF 50 mg/kg, 120 h): 0.070 ± 0.091 µg
cumulative excretion ratio in urine ([1]; rats, oral CNS 110 mg/kg, within 120 h): 1.86%
cumulative excretion ratio in urine ([1]; rats, oral SF 50 mg/kg, within 120 h): 2.83%
cumulative urinary excretion ratio in the CNS group comparing with the SF group ([1]; rats, within 120 h): 0.66 times
total excretion ratios in the urine and feces [2]: less than 18%
Substance: hydroxysafflor yellow A [HSYA]
inhibitory effect on CYP2C11 (CYP2C11): significant inhibitory effects
inhibitory effect on CYP1A2 (CYP1A2): significant inhibitory effects
